# CycPeptMPDB entries from one study

Collected by the curators of CycPeptMPDB (Li et al. 2023) from Townsend et al. 2020, doi:10.26434/chemrxiv.13335941.v1.

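Conditions beyond the assay type are not listed; see the original paper. The list need not hold all peptides of the study. Peptides that the database sets to -10, its floor, are left out.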

PAMPA measures passive passage through an artificial lipid membrane. Permeability is given as log10 of P in cm/s; higher (less negative) is more permeable.

PAMPA (log10 cm/s)	compound
-5.88	CC(C)C[C@@H]1NC(=O)[C@@H]2CCCN2C(=O)[C@H](CC(C)C)NC(=O)CN(Cc2ccccc2)C(=O)[C@H](C)N(C)C(=O)[C@H](Cc2ccccc2)NC1=O
-6.23	CC(C)C[C@@H]1NC(=O)[C@H]2CCCN2C(=O)[C@@H](CC(C)C)N(C)C(=O)[C@@H](CC(C)C)NC(=O)[C@@H](C)N(C)C(=O)[C@@H]2CCCN2C(=O)[C@H](Cc2ccccc2)NC1=O
-5.81	CC(C)C[C@@H]1NC(=O)[C@@H]2CCCN2C(=O)C[C@H](Cc2ccccc2)NC(=O)[C@H](CC(C)C)N(C)C(=O)C[C@H](Cc2ccccc2)NC(=O)[C@H]2CCCN2C(=O)[C@H](Cc2ccccc2)NC1=O
-6.86	CC(C)C[C@@H]1NC(=O)[C@H]2CCCN2C(=O)CN(Cc2ccccc2)C(=O)[C@@H](CC(C)C)N(C)C(=O)[C@@H](C)N(C)C(=O)[C@@H]2CCCN2C(=O)[C@H](Cc2ccccc2)NC1=O
-6.02	CC(C)C[C@H]1NC(=O)[C@H](CC(C)C)N(C)C(=O)[C@@H](C)NC(=O)[C@H]2CCCN2C(=O)[C@H](Cc2ccccc2)NC(=O)CN(Cc2ccccc2)C(=O)[C@@H]2CCCN2C1=O
-5.79	CC(C)C[C@@H]1C(=O)N(C)[C@@H](CC(C)C)C(=O)N2CCC[C@H]2C(=O)N(Cc2ccccc2)CC(=O)N[C@@H](Cc2ccccc2)C(=O)N2CCC[C@@H]2C(=O)N[C@H](C)C(=O)N1C
-5.18	CC(C)C[C@@H]1C(=O)N2CCC[C@H]2C(=O)N(C)[C@@H](CC(C)C)C(=O)N[C@@H](Cc2ccccc2)C(=O)N2CCC[C@@H]2C(=O)N(C)[C@H](C)C(=O)N(C)[C@@H](CC(C)C)C(=O)N1C
-5.42	CCCN1CC(=O)N(C)[C@H](CC(C)C)C(=O)N(C)[C@H](CC(C)C)C(=O)N2CCC[C@H]2C(=O)N(C)[C@H](CC(C)C)C(=O)N[C@@H](Cc2ccccc2)C(=O)N2CCC[C@H]2C1=O
-5.75	CCCN1CC(=O)N[C@@H](CC(C)C)C(=O)N[C@@H](CC(C)C)C(=O)N2CCC[C@@H]2C(=O)N(Cc2ccccc2)CC(=O)N[C@@H](Cc2ccccc2)C(=O)N2CCC[C@@H]2C1=O
-5.92	CC(C)C[C@H]1NC(=O)[C@@H](C)N(C)C(=O)[C@H]2CCCN2C(=O)[C@H](Cc2ccccc2)NC(=O)[C@H](CC(C)C)N(C)C(=O)[C@H]2CCCN2C(=O)[C@@H](CC(C)C)NC1=O
-5.56	CCCN1CC(=O)N(C)[C@H](CC(C)C)C(=O)N(C)[C@H](CC(C)C)C(=O)N2CCC[C@@H]2C(=O)N[C@@H](CC(C)C)C(=O)N[C@@H](Cc2ccccc2)C(=O)N2CCC[C@@H]2C1=O
-5.49	CC(C)C[C@@H]1C(=O)N2CCC[C@H]2C(=O)N(C)[C@H](CC(C)C)C(=O)N[C@@H](Cc2ccccc2)C(=O)N2CCC[C@H]2C(=O)N[C@@H](Cc2ccccc2)CC(=O)N[C@H](CC(C)C)C(=O)N1C
-6.20	CC(C)C[C@H]1NC(=O)[C@@H]2CCCN2C(=O)[C@@H](CC(C)C)NC(=O)CN(Cc2ccccc2)C(=O)[C@@H](C)NC(=O)[C@H](Cc2ccccc2)NC1=O
-5.59	CC(C)C[C@@H]1NC(=O)[C@@H](C)N(C)C(=O)[C@H]2CCCN2C(=O)[C@H](Cc2ccccc2)NC(=O)[C@H](CC(C)C)N(C)C(=O)[C@H]2CCCN2C(=O)[C@@H](CC(C)C)NC1=O
-5.90	CC(C)C[C@@H]1C(=O)N[C@H](CC(C)C)C(=O)N2CCC[C@@H]2C(=O)N[C@H](CC(C)C)C(=O)N[C@@H](Cc2ccccc2)C(=O)N2CCC[C@H]2C(=O)N(C)[C@H](C)C(=O)N1C
-5.73	CC(C)C[C@H]1NC(=O)[C@@H]2CCCN2C(=O)CN(Cc2ccccc2)C(=O)[C@@H](CC(C)C)NC(=O)C[C@H](Cc2ccccc2)NC(=O)[C@H]2CCCN2C(=O)[C@H](Cc2ccccc2)NC1=O
-5.38	CC(C)C[C@@H]1NC(=O)[C@@H](CC(C)C)N(C)C(=O)C[C@H](Cc2ccccc2)NC(=O)[C@H](Cc2ccccc2)NC(=O)CN(Cc2ccccc2)C(=O)[C@@H]2CCCN2C1=O
-5.50	CC(C)C[C@@H]1C(=O)N[C@@H](Cc2ccccc2)CC(=O)N2CCC[C@H]2C(=O)N(C)[C@@H](CC(C)C)C(=O)N[C@@H](Cc2ccccc2)C(=O)N2CCC[C@H]2C(=O)N(C)[C@@H](C)C(=O)N1C
-6.10	CC(C)C[C@@H]1NC(=O)[C@H]2CCCN2C(=O)[C@H](CC(C)C)N(C)C(=O)[C@@H](CC(C)C)NC(=O)[C@H](C)N(C)C(=O)[C@@H]2CCCN2C(=O)[C@H](Cc2ccccc2)NC1=O
-5.54	CC(C)C[C@H]1NC(=O)[C@H]2CCCN2C(=O)C[C@H](Cc2ccccc2)NC(=O)[C@H](CC(C)C)N(C)C(=O)[C@@H](C)NC(=O)[C@H](Cc2ccccc2)NC1=O
-6.41	CC(C)C[C@@H]1NC(=O)[C@H]2CCCN2C(=O)CN(Cc2ccccc2)C(=O)[C@H](CC(C)C)NC(=O)[C@H](C)N(C)C(=O)[C@H]2CCCN2C(=O)[C@H](Cc2ccccc2)NC1=O
-4.93	CCCN1CC(=O)N(C)[C@@H](CC(C)C)C(=O)N[C@@H](CC(C)C)C(=O)N2CCC[C@H]2C(=O)N[C@H](CC(C)C)C(=O)N[C@@H](Cc2ccccc2)C1=O
-5.46	CC(C)C[C@@H]1NC(=O)[C@@H](C)N(C)C(=O)[C@H](Cc2ccccc2)NC(=O)[C@@H](CC(C)C)N(C)C(=O)[C@H]2CCCN2C(=O)[C@H](CC(C)C)NC1=O
-6.46	CC(C)C[C@H]1NC(=O)[C@H]2CCCN2C(=O)[C@@H](CC(C)C)NC(=O)CN(Cc2ccccc2)C(=O)[C@H](C)NC(=O)[C@H](Cc2ccccc2)NC1=O

The first 3 entries again:

compound	PAMPA (log10 cm/s)
CC(C)C[C@@H]1NC(=O)[C@@H]2CCCN2C(=O)[C@H](CC(C)C)NC(=O)CN(Cc2ccccc2)C(=O)[C@H](C)N(C)C(=O)[C@H](Cc2ccccc2)NC1=O	-5.88
CC(C)C[C@@H]1NC(=O)[C@H]2CCCN2C(=O)[C@@H](CC(C)C)N(C)C(=O)[C@@H](CC(C)C)NC(=O)[C@@H](C)N(C)C(=O)[C@@H]2CCCN2C(=O)[C@H](Cc2ccccc2)NC1=O	-6.23
CC(C)C[C@@H]1NC(=O)[C@@H]2CCCN2C(=O)C[C@H](Cc2ccccc2)NC(=O)[C@H](CC(C)C)N(C)C(=O)C[C@H](Cc2ccccc2)NC(=O)[C@H]2CCCN2C(=O)[C@H](Cc2ccccc2)NC1=O	-5.81